{"source": "patent US12421294B2", "about": "“Truncated epiderimal growth factor receptor (EGFRt) for transduced t cell selection” (City of Hope, priority 2009, dated 2025)", "tested_on": "EGFRt^+ T cells (^51Cr-labeled Line A cells)", "experiment": "Antibody dependent cell mediated cytotoxicity (ADCC) by chromium release, human PBMC effectors", "format": "cell-based", "conditions": "Line A targets pre-incubated with antibody, compared with CD20-specific mAb Rituxan", "description": "For T cell engraftment, six- to ten-week old NOD/Scid IL-2RγC^null mice are injected i.v. on day 0 with 10^7 T cells (Line C). 2×10^7 irradiated (8000 rads) NS0-GFP:IMPDH2-IL15(IL2ss)_pcDNA3.1(+) (cJ02096) cells are administered i.p. 3 times a week starting on day 0 to provide a systemic supply of human IL-15 in vivo. Bone marrow was harvested from euthanized animals and analyzed by flow cytometry.", "data": [{"substance": "cetuximab", "values": [{"measurement": "ADCC activity (chromium-release)", "result": "significantly mediate chromium-release"}]}]}
